Measured values: US6855807B1 (priority 1999, dated 2005)

By UniProt entry, the sequences of proteins in these tests, tags left out.
UniProt P32300, whole entry: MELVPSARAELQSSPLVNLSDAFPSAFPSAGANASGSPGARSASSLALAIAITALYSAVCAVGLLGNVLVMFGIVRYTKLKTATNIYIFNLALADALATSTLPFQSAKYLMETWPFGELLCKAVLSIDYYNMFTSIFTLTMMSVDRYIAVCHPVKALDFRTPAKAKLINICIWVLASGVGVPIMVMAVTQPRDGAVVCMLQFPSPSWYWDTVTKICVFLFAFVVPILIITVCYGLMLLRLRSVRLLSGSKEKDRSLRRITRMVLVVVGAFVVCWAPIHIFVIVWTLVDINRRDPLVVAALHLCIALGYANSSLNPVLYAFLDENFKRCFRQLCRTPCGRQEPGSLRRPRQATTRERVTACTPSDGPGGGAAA

Biological target: delta opioid receptor (Mus musculus, UniProt P32300)
Assay: Competition of 3H-diprenorphine binding in membranes of cells expressing delta receptors
Settings: read-out: Delta (Ki nM); ligand alone; competition with 3H-diprenorphine; mean ± SEM (n = 3-4)

Question: How did the Ki turn out when `CO[C@]12CC[C@@]3(C[C@@H]1C(C)(C)O)[C@H]1Cc4ccc(O)c5c4[C@@]3(CCN1CC1CC1)[C@H]2O5` was run?
Answer: 1.43 nM
